Experimental data published in article PMC10140010 (Investigational New Drugs, 2023).

System: LU-01-0015 (HIP-ALK) patient derived lung-tumor xenografts
Assay: LU-01-0015 patient-derived xenograft model (tumor volume, body weight)
Format: in vivo, BALB/c nude mice
Conditions: nude mouse xenograft models (LU-01-0015, NCI-H3122), all P ≥ 0.05

With `C[C@@H](Oc1cc(-c2cnn(C3CCNCC3)c2)cnc1N)c1c(Cl)ccc(F)c1Cl` [Crizotinib, reference compound] the “effect on body weight” value was “no effect”.
